Compound activity (PubChem BioAssay)
Sampled rows, rich in hits. Any-hit rate of the full collection: about 2.3%.
miR-21 reporter = raises the signal of a miR-21 reporter | HeLa miR-21 FLuc reporter, luciferase, 48 h | Potency, µM (highest dose often 38.3 µM), inactives show at the highest dose reporter change, positive = more light | 340,000 tested, under 10 active | AID 2288; active = well fitted rising curve with a large enough effect; inconclusive = small, poorly fitted or top-dose-only effect; inactive = no such curve, though single readings can be large or run the other way;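 note: % of control where 0% means no effect; miR-21 action dims this reporter so a rising signal means less miR-21 action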
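Using DMEM plus 10% FBS, HeLa miR-21-FLuc cells are incubated with test compounds (final up to about 40uM) for 48 hours; firefly luciferase signal is then imaged following reagent-mediated lysis.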
A549 tox-1 = A549 cytotoxicity, counter-screen for Nrf2 inhibitors. A549 ARE-Fluc cells, CellTiter-Fluor viability, 18-24 h. Potency, µM (highest dose often 46 µM), inactives show at the top dose activity change, negative = cytotoxicity, actives largely listed as inhibitors. 390,000 compounds, 0.16% hits. AID 504648; further: potency means the concentration at half of the fitted maximal effect; on the % scale 0 is the no-effect control and ±100 the full control effect
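A549 ARE-Fluc cells in 5% FBS OPTI-MEM, 5000 cells/well, rested 2 h then exposed to compounds in concentration-response for 18-24 h at 37 °C. Viability by CellTiter-Fluor fluorescence (Ex 405/Em 525) after 30 min; luciferase luminescence (BugLite, 15 min, RT) read afterwards.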
Nrf2 block = inhibitors of Nrf2 signaling | A549 ARE-Fluc reporter, luciferase luminescence, 18-24 h | Potency, µM (doses to about 46 µM), for inactives: at the top dose activity change, negative = inhibition, usual class: inhibitors | 360,000 compounds, 2.1% hits | AID 504444; further: potency means the concentration at half of the fitted maximal effect; on the % scale 0 is the no-effect control and ±100 the full control effect; nearly all actives have a fitted effect of over 60% in size
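Nrf2 function is reported as luminescence of an ARE-controlled luciferase in A549 cells. Compounds were tested at several concentrations, and a CellTiter-Fluor read on the same wells flagged cytotoxicity.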
Mito fusion act = blocks mitochondrial division or promotes mitochondrial fusion. Potency, µM (doses to about 46.1 µM), inactives show top-dose growth rescue (activation), hits mostly activators. S. cerevisiae fusion-defective mutant growth rescue, CellTiterGlo 48 h. 320,000 compounds, 0.23% hits. AID 485298; further: potency means the concentration at half of the fitted maximal effect; % of control where 0% means no effect; nearly all actives have a fitted effect of over 45% in size
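S. cerevisiae fusion-defective temperature-sensitive mutants (e.g. fzo1-1, mgm1-5) grown 48 h at 37C in YPEG (ethanol/glycerol non-fermentable) medium with 23 nl compound per well; growth rescue read as CellTiterGlo luminescence.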
Nrf2 ARE act = activators of Nrf2 (ARE) signaling. AREc32 ARE-luciferase reporter (MCF7-derived line), luminescence, 24 h. AID 624171. 410,000 compounds, 0.31% hits. Potency, µM (series often up to 46.1 µM), without a hit: at the top dose activation, usual class: activators; further: potency means the concentration at half of the fitted maximal effect; % of control where 0% means no effect; nearly all actives have a fitted effect of over 65% in size
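For detection, Steady-Glo was added and plates sat 30 min at RT; before that, AREc32_Fluc cells grown overnight in OPTI-MEM/5% FBS had been treated with 23 nL compound for 24 hr at 37 deg C.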
FLuc counter 3 = blocks purified firefly luciferase in Nrf2 counterscreen; shares compounds with Nrf2 block; purified firefly luciferase, luminescence inhibition; 1,400 compounds, 4% hits; Potency, µM (highest dose often 57.5 µM), inactives show top-dose activity change, negative = inhibition, most hits filed as inhibitors; further: potency means the concentration at half of the fitted maximal effect; on the % scale 0 is the no-effect control and ±100 the full control effect; nearly all actives have a fitted effect of over 65% in size
A549 tox-2 = A549 cytotoxicity, Nrf2 inhibitor counterscreen; shares compounds with Nrf2 block; A549 ARE-Fluc cells, cytotoxicity counterscreen; Potency, µM (titrated, usually from 46.1 µM), for the others: at the top dose activity change, negative = cytotoxicity, actives largely listed as inhibitors; 1,400 compounds, 2% hits;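 further: potency means the concentration at half of the fitted maximal effect; cells exposed to compounds for 18 to 24 hours; on the % scale 0 is the no-effect control and ±100 the full control effect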
ARE-Fluc inh = confirmation of Nrf2 inhibitors in A549 ARE reporter cells; Potency, µM (series often up to 46.1 µM), without a hit: top-dose activity change, negative = inhibition, usual class: inhibitors; 1,400 compounds, 74% hits; shares compounds with Nrf2 block; AID 720524; A549 ARE-firefly luciferase reporter, luminescence; further: potency means the concentration at half of the fitted maximal effect; on the % scale 0 is the no-effect control and ±100 the full control effect; nearly all actives have a fitted effect of over 65% in size
Numbers without * were called inactive; ? = inconclusive; . = not tested or not shown. Unless noted, the call rests on the fitted dose curve; in most records, active means well fitted curve in the direction sought with a large enough effect; inconclusive means small, poorly fitted or top-dose-only effect, or another doubt; inactive means no such curve, though single readings can be large; an effect the other way counts as inactive or inconclusive.

SMILES	miR-21 reporter	A549 tox-1	Nrf2 block	Mito fusion act	Nrf2 ARE act	FLuc counter 3	A549 tox-2	ARE-Fluc inh
Cc1ccccc1OCCn1c(CCNC(=O)C2CCCCC2)nc2ccccc21	-7%	-1%	?	.	1%	.	.	.
COc1ccccc1CNC(=O)CN1C(=O)CSc2c1c(C)nn2-c1ccccc1	0%	-1%	?	.	-1%	.	.	.
Cc1nc2c(c(C)c1CCC(=O)NCc1ccc(F)cc1)c(=O)n(C)c(=O)n2C	3%	-3%	6%	.	0%	.	.	.
CC(=O)N1CCCC1c1nc2ccccc2n1Cc1ccccc1C (stereo unspecified)	?	?	3.3µM*	.	1%	1%	-7%	18%
CC(C)N(C(=O)CSc1nc2ccccc2n1-c1ccccc1)C(C)C	-1%	-14%	-20%	-9%	1%	.	.	.
O=C(O)CCSc1nc2ccccc2n1-c1ccccc1	-24%	-3%	5.8µM*	17%	0%	-1%	3%	5.8µM*
CC1CCN(S(=O)(=O)c2ccc3c(c2)N(CC(=O)NCC(C)c2ccccc2)C(=O)CO3)CC1 (stereo unspecified)	-2%	-19%	-15%	.	-1%	.	.	.
O=C(C[n+]1cccc2ccccc21)c1ccc(Cl)cc1	-21%	9%	32%	-7%	2%	.	.	.
Clc1cccc(Cl)c1C[n+]1cccc2ccccc21	.	-13%	4.1µM*	.	-1%	1%	4%	?
COc1ccc2c(CNC3CCCCCC3)c(C(=O)O)n(Cc3ccccc3F)c2c1	23%	-8%	23%	.	0%	.	.	.
CCC(C(=O)Nc1cc(OC)ccc1OC)n1nc(-c2ccccc2)c2c(c1=O)CCCC2 (stereo unspecified)	?	?	?	.	7%	.	.	.
CN(CC(=O)Nc1ccccc1Br)c1ncnc2sccc12	1%	-8%	9.2µM*	8%	0%	4%	1%	?
CC(=O)Nc1nnc(SCc2cc(=O)c(OC(=O)c3ccccc3)co2)s1	1%	-3%	1%	1%	0%	.	.	.
Cc1ccc(C(=O)Oc2coc(CSc3nnc(NC(=O)c4cccs4)s3)cc2=O)cc1	-3%	-1%	6.5µM*	7%	-1%	?	1%	4.6µM*
COc1ccc(Nc2oc(/C=C/c3ccc(OC)c(OC)c3)nc2C#N)cc1	-13%	-19%	11%	.	5%	.	.	.
COc1cccc(S(=O)(=O)Nc2ccc(C(=O)Nc3ccncc3)cc2)c1	4%	-3%	?	-4%	2%	.	.	.
O=C(Nc1cccc(S(=O)(=O)Nc2ccc(Cl)cc2)c1)c1ccc(Cl)nc1	?	?	3.3µM*	-1%	0%	-16%	-22%	4.1µM*
COc1ccc(NS(=O)(=O)c2cccc(NC(=O)c3ccc(Cl)nc3)c2)cc1	?	?	0.58µM*	-4%	0%	0%	-5%	1.6µM*
Cc1ccc2onc(CC(=O)N(C)c3ccccc3)c2c1	-41%	-13%	?	.	1%	.	.	.
Cc1ccc(C(=O)Nc2ccc(Br)c(C(F)(F)F)c2)cc1	9%	.	1.6µM*	-5%	2%	6.7µM*	-25%	.
Cc1ccc(NC(=O)c2ccc(C)cc2)cc1	.	-3%	?	9%	-1%	.	.	.
COc1cc(OC)cc(-c2cc3nc(C)c(CCC(=O)O)c(C)n3n2)c1	?	0%	1.5µM*	-1%	-5%	11µM*	4%	2.6µM*
COc1ccc(CCNC(=O)CCc2c(C)nc3cc(-c4ccccc4)nn3c2C)cc1OC	?	-12%	?	.	-3%	.	.	.
Cc1ccc2[nH]cc(/C=C/c3cc[n+](C)cc3)c2c1	?	-42%	1.8µM*	-9%	11%	0%	-30%	1.3µM*
CC[n+]1ccc(/C=C/c2c[nH]c3ccccc23)cc1	27%	?	1.3µM*	0%	5%	-1%	?	4.6µM*
Cc1ccc2[nH]ccc(=O)c2c1	1%	-6%	0%	-7%	4%	.	.	.
COc1ccc2c(/C=C/c3cc[n+](C)cc3)c[nH]c2c1	?	?	1.3µM*	-6%	1%	4%	?	1.6µM*
COc1ccc2c(C=O)c[nH]c2c1	0%	8%	6%	2%	4%	.	.	.
Cc1onc(-c2ccccc2)c1C(=O)NC(=S)NNC(=O)c1ccc(O)cc1O	?	-14%	7.3µM*	20%	0%	-19%	-10%	5.8µM*
Cc1onc(-c2ccccc2)c1C(=O)NC(=S)NNC(=O)c1ccccc1O	?	-9%	?	1%	0%	.	.	.

The final two records of the part before lead into the next.
SMILES	miR-21 reporter	A549 tox-1	Nrf2 block	Mito fusion act	Nrf2 ARE act	FLuc counter 3	A549 tox-2	ARE-Fluc inh
Cc1onc(-c2ccccc2)c1C(=O)NC(=S)NNC(=O)c1ccc(O)cc1O	?	-14%	7.3µM*	20%	0%	-19%	-10%	5.8µM*
Cc1onc(-c2ccccc2)c1C(=O)NC(=S)NNC(=O)c1ccccc1O	?	-9%	?	1%	0%	.	.	.
Cc1cc(F)ccc1S(=O)(=O)Nc1ccccc1C(=O)Nc1ccccc1-c1nc2ccccc2[nH]1	?	23µM*	4.1µM*	15%	-2%	2%	?	16µM*
COc1ccc(OC)c(CCNC(=O)CCCn2c(=O)c3cccn3c3ccc(F)cc32)c1	-5%	6%	?	.	22%	.	.	.
COc1ccc2[nH]c3c(c2c1)CCN1C(=O)C(CC(=O)NCc2cccc(C(F)(F)F)c2)C[C@H](C(=O)N2CCCCC2)[C@@]31CCc1ccccc1 (stereo partly specified)	.	-17%	6.5µM*	.	0%	-2%	-27%	21µM*
CCc1ccccc1NS(=O)(=O)c1ccc2c(c1)OCC(C(=O)N1CCCC1)O2 (stereo unspecified)	1%	-7%	?	.	0%	.	.	.
CCOc1ccc(CCNC(=O)c2ccc(CS(=O)(=O)Cc3ccccc3Cl)o2)cc1OCC	1%	3%	.	-10%	-1%	.	.	.
C[C@]12C=CC(=O)C=C1CC[C@@H]1C2[C@@H](O)C[C@@]2(C)C1CC[C@]2(O)C(=O)COC(=O)CCC(=O)O (stereo partly specified)	-31%	-2%	0.13µM*	5%	3%	-3%	0%	?
CCCC1O[C@@H]2CC3C4CCC5=CC(=O)C=C[C@]5(C)C4C(OC(C)=O)C[C@]3(C)[C@]2(C(=O)COC(C)=O)O1 (stereo partly specified)	-7%	-19%	-27%	-16%	0%	.	.	.
CC(=O)OCC(=O)C1(O)CCC2C3CCC4=CC(=O)C=CC4(C)C3C(O)CC21C (stereo unspecified)	-43%	-1%	0.029µM*	-4%	0%	1%	-6%	0.058µM*

Pulled by compound from the list above, 4 records:
SMILES	miR-21 reporter	A549 tox-1	Nrf2 block	Mito fusion act	Nrf2 ARE act	FLuc counter 3	A549 tox-2	ARE-Fluc inh
COc1ccc(OC)c(CCNC(=O)CCCn2c(=O)c3cccn3c3ccc(F)cc32)c1	-5%	6%	?	.	22%	.	.	.
C[C@]12C=CC(=O)C=C1CC[C@@H]1C2[C@@H](O)C[C@@]2(C)C1CC[C@]2(O)C(=O)COC(=O)CCC(=O)O (stereo partly specified)	-31%	-2%	0.13µM*	5%	3%	-3%	0%	?
CCOc1ccc(CCNC(=O)c2ccc(CS(=O)(=O)Cc3ccccc3Cl)o2)cc1OCC	1%	3%	.	-10%	-1%	.	.	.
Cc1cc(F)ccc1S(=O)(=O)Nc1ccccc1C(=O)Nc1ccccc1-c1nc2ccccc2[nH]1	?	23µM*	4.1µM*	15%	-2%	2%	?	16µM*
